Measured values from patent US20050137807A1, “Method of visualization of the ADME properties of chemical substances” (priority 2003, published 2005).

Amino acid sequences for entries named in this document (tags omitted). Residues count along the entry.
UniProt P02768, 25-609: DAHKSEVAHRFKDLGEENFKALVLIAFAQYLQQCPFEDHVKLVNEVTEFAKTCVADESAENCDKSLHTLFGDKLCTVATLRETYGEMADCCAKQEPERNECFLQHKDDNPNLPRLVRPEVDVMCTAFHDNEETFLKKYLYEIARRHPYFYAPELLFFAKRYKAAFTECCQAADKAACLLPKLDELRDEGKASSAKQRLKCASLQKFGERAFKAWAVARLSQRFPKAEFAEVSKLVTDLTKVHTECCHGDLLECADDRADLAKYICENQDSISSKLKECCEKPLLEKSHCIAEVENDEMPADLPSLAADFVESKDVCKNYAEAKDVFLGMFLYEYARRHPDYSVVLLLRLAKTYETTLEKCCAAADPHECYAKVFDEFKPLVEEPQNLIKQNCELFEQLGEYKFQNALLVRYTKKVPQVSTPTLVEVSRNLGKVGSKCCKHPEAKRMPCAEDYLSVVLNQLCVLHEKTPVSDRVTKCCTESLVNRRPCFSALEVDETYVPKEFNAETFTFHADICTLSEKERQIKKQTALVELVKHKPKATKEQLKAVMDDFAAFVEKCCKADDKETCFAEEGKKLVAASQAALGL

Each compound was assayed against human serum albumin (Homo sapiens, UniProt P02768) (assay: binding constant to human serum albumin (TRANSIL technology)). Settings: log binding constant to human serum albumin.

**Q.** `CC(CCc1ccccc1)NCC(O)c1ccc(O)c(C(N)=O)c1` (centres unmarked) [Labetalol] was tested. Which LogHSA did it give?
**A.** The LogHSA was −3.770.

**Q.** `C[C@@H]1C[C@H]2[C@@H]3CCC4=CC(=O)C=C[C@]4(C)[C@@]3(F)[C@@H](O)C[C@]2(C)[C@@]1(O)C(=O)CO` [Dexamethasone] was tested. Which LogHSA did it give?
**A.** Its LogHSA is −3.114.

**Q.** With `C[C@]12C=CC(=O)C=C1CC[C@@H]1[C@@H]2[C@@H](O)C[C@@]2(C)[C@H]1CC[C@]2(O)C(=O)CO` [Prednisolone] as the compound, how does the LogHSA read?
**A.** Its LogHSA is −3.694.

**Q.** With `COc1cc2nc(N3CCN(C(=O)C4CCCO4)CC3)nc(N)c2cc1OC` (centres unmarked) [Terazosin] as the compound, how does the LogHSA read?
**A.** The LogHSA was −4.000.

**Q.** For `C[C@]12C[C@H](O)[C@H]3[C@@H](CCC4=CC(=O)CC[C@@]43C)[C@@H]1CC[C@@H]2C(=O)CO` [Corticosterone], which LogHSA is on record?
**A.** The LogHSA was −3.886.
